From patent publication US20110306597A1, “Nicotinamide Derivatives” (priority 2008, published 2011) come the findings set out here.

Chains of the proteins cited; added tags and fusions are not shown.
UniProt O60760, whole entry: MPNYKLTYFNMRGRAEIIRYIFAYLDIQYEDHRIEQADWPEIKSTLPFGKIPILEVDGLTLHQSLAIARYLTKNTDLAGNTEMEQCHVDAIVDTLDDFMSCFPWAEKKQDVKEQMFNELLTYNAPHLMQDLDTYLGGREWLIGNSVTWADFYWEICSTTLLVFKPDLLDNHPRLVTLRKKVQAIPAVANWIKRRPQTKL

This experiment deals with human recombinant H-PGDS (Homo sapiens, UniProt O60760). Description: Fluorescence Intensity h-PGDS TBA Enzyme Assay. Conditions: 1:175,000 human recombinant H-PGDS, highest inhibitor concentration typically 1 μM.

What is called IC50 is the point on the concentration scale where inhibition reaches its midpoint. With `COC(=O)C(Cc1ccc(Cl)cc1)NC(=O)c1ccc(-c2cccc(C)c2)nc1` (stereo not shown), the IC50 was 49.2 nM.
